## AlphaSeq binding of Ab-14 light chain variants to a spike HR2 peptide

Source: Engelhart et al. 2022 (doi:10.1038/s41597-022-01779-4), MIT Lincoln Laboratory and A-Alpha Bio; data file from the FLAb repository.

All variants were tested on one target, the spike HR2 peptide PDVDLGDISGINAS (SARS-CoV-2).

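Variants in AAYL50 differ from the parent at up to three CDR positions; double and triple changes were sampled at random. The assay is AlphaSeq: two haploid yeast populations carry antibody and antigen on their surface. Pairs that bind mate more often; barcode pairs of the diploids are counted by sequencing. Read counts were normalised to the haploid input and turned into Kd by a linear fit to BCL2-family pairs of known affinity, for each replicate. The assay was run in three technical replicates.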

Parent scFv Ab-14: VH joined to VL by a (GGGGS)3 linker. Changes lie in the light chain CDRs alone.
VH: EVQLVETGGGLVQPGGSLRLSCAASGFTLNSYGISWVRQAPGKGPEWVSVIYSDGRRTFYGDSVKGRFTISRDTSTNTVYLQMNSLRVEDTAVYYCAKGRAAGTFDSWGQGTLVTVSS
VL: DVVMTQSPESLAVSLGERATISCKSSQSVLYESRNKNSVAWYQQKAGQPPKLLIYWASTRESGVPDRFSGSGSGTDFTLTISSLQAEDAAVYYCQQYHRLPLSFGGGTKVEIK

Substitutions are numbered in sequence along the VL above, starting at 1 (not Kabat).
Numbers give log10(Kd / nM), so 0 is 1 nM and 3 is 1 µM. Smaller is tighter.
Averages over replicates are reported, and they cover detected replicates only.
"nd" means that the variant was in the library but no mating with the target was seen in any replicate; the authors take this as a sign of poor binding, and no number exists.
In this assay the parent's reference entry averaged 0.65; its copy inside this library read 1.68.

3.40 (1 of 3 replicates): S38M+A40D+L102S.
0.32 (3 of 3 replicates): S25L+Y31W.
nd (0 of 3 replicates): L30A+A40P+R99F.
3.12 (3 of 3 replicates): T59R+Q96Y+S103W.
3.43 (1 of 3 replicates): V39H+W56C+P101F.
nd (0 of 3 replicates): A57Y+T59L+S103W.
nd (0 of 3 replicates): N35P+A40F+Y97F.
nd (0 of 3 replicates): Y31W+R34Q+P101N.
nd (0 of 3 replicates): K24F+R34M+L100R.
3.85 (3 of 3 replicates): L30V+Y31F+E61K.
2.88 (3 of 3 replicates): Q27Y+L30I+W56F.
1.12 (3 of 3 replicates): S28A+L30Q+S33D.
4.75 (2 of 3 replicates): S33Q+V39Y+Y97M.
0.80 (3 of 3 replicates): S25G+S26Q+L102C.
0.46 (3 of 3 replicates): L30E+V39I.
0.77 (3 of 3 replicates): K24F+S25C+R34E.
4.65 (2 of 3 replicates): S25K+Q95F+H98P.
4.16 (2 of 3 replicates): S26Y+A40R+L100M.
nd (0 of 3 replicates): S28D+S33H+A40L.
nd (0 of 3 replicates): K24L+S58K+Y97G.
5.00 (3 of 3 replicates): E32R+V39P+Q96E.
0.78 (3 of 3 replicates): K36R+L100H+P101G.
nd (0 of 3 replicates): E32Q+A40W+S58W.
4.07 (1 of 3 replicates): N37V+P101Q.
4.22 (1 of 3 replicates): R60K+E61H+Q95P.
5.35 (1 of 3 replicates): N35P+A57K+L100E.
nd (0 of 3 replicates): S25P+E61M+R99E.
2.89 (1 of 3 replicates): Q27M+E32S+L102Y.
nd (0 of 3 replicates): S38I+E61G+L100N.
3.89 (3 of 3 replicates): S28H+S33I+R34C.
2.14 (3 of 3 replicates): Y31S+R34C+E61V.
1.50 (3 of 3 replicates): W56K+T59Y+R99G.
nd (0 of 3 replicates): K24W+S28T+E32K.
2.66 (3 of 3 replicates): V29H+Y31I+S62T.
4.57 (2 of 3 replicates): V29Q+E32N+V39S.
4.20 (3 of 3 replicates): R34E+Q95C+R99W.
nd (0 of 3 replicates): S26T+R34E+A40Y.
nd (0 of 3 replicates): V29E+S33I+V39R.
1.88 (3 of 3 replicates): S33W+P101A+S103P.
2.25 (3 of 3 replicates): R60M+Q95A.

Extract of 3 entries:

The variant S33Q+V39Y+Y97M gave 4.75 (2 of 3 replicates).
The variant W56K+T59Y+R99G gave 1.50 (3 of 3 replicates).
The variant S28D+S33H+A40L gave nd (0 of 3 replicates).

As a blank, each scFv also met three strains without target: over library AAYL50, 18% of these pairings were detected, typically at 4.19 and seldom below 2.99.